Tested on: HuT78
Assay: Ratio of drug uptake in human HUT78 cells in presence of verapamil to drug uptake in human HUT78 cells in absence of verapamil at 2 x 10^-7M after 1 hr by flow cytometric analysis
Conditions: hut78, 1 h, 0.2 µM

## O=C(c1ccc(C2=c3cc4c5c(c3[Se]c3c2cc2c6c3CCCN6CCC2)CCC[N+]=5CCC4)s1)N1CCCCC1.[Cl-]
  Ratio: 1.13

## S=C(c1ccc(C2=c3cc4c5c(c3[Se]c3c2cc2c6c3CCCN6CCC2)CCC[N+]=5CCC4)s1)N1CCCCC1.[Cl-]
  Ratio: 1.17

Source: ChEMBL document CHEMBL3826914, “Selective photodepletion of malignant T cells in extracorporeal photopheresis with selenorhodamine photosensitizers” (Bioorg Med Chem, 2016)
